Marks after values point to notes of the source that are not given here.
How the values were obtained:
[1] = 12-hour levodopa plasma pharmacokinetics; format: in vivo, human (patients with PD); conditions: for Levodopa FI / Levodopa t1/2: mean; for Levodopa AUCtotal / Levodopa FI (over all intakes): mean (%CV); for Levodopa AUCtotal, geometric mean (90% CI) / Levodopa FI, geometric mean (90% CI): N 12
Procedure: The study design is illustrated in Figure 1.
Pharmacokinetic evaluation occurred over 12 hours with sampling every 30 minutes, except for the last sample following each LD dose in the opicapone plus four LD intake regimen, which was sampled at 1 hour. The main pharmacokinetics parameters assessed included maximum observed plasma concentration (Cmax), time to achieve peak plasma levels (tmax), minimum observed plasma concentration (Cmin), plasma elimination half‐life (t1/2), area under the curve (AUC), and fluctuation index (FI; as an expression of peak‐to‐trough fluctuation, Cmax, and Cmin, relative to average concentration [Cavg]). The pharmacokinetics of the LD metabolite 3‐O‐methyldopa (3‐OMD) was also evaluated.
Descriptive statistics were used to summarize the pharmacokinetics parameters for LD and 3‐OMD for each of the three regimens. […] No formal comparison was performed between opicapone regimens.

[2] = 12-hour 3-O-methyldopa plasma pharmacokinetics; format: in vivo, human (patients with PD); conditions: for 3-O-methyldopa AUCtotal, Geometric Mean (90% CI): N 12; for 3-O-methyldopa AUCtotal: mean (%CV)
[3] = five-intake LD/CD 500/125 mg vs five-intake LD/CD 400/100 mg plus opicapone 50 mg, fourth LD/CD intake
[4] = five-intake LD/CD 500/125 mg vs five-intake LD/CD 400/100 mg plus opicapone 50 mg
[5] = five-intake LD/CD 500/125 mg vs five-intake LD/CD 400/100 mg plus opicapone 50 mg, second LD/CD intake
[6] = five-intake LD/CD 500/125 mg vs five-intake LD/CD 400/100 mg plus opicapone 50 mg, third LD/CD intake
[7] = five-intake LD/CD 500/125 mg vs four-intake LD/CD 400/100 mg plus opicapone 50 mg, first LD/CD intake
[8] = five-intake LD/CD 500/125 mg vs four-intake LD/CD 400/100 mg plus opicapone 50 mg, fourth LD/CD intake
[9] = five-intake LD/CD 500/125 mg vs four-intake LD/CD 400/100 mg plus opicapone 50 mg
[10] = five-intake LD/CD 500/125 mg vs four-intake LD/CD 400/100 mg plus opicapone 50 mg, second LD/CD intake
[11] = five-intake LD/CD 500/125 mg vs four-intake LD/CD 400/100 mg plus opicapone 50 mg, third LD/CD intake
[12] = five-intake levodopa/carbidopa 500/125 mg vs five-intake levodopa/carbidopa 400/100 mg plus opicapone 50 mg
[13] = five-intake levodopa/carbidopa 500/125 mg vs four-intake levodopa/carbidopa 400/100 mg plus opicapone 50 mg
[14] = 5-intake LD/CD 500/125mg vs 4-intake LD/CD 400/100mg plus OPC 50mg, 1st LD/CD intake, mean
[15] = 5-intake LD/CD 500/125mg vs 5-intake LD/CD 400/100mg plus OPC 50mg, 1st LD/CD intake, mean

Substance: levodopa/carbidopa [LD/CD]
- Levodopa FI [1, 3]: 112^d %
- Levodopa t1/2 [1, 3]: 1.4^d h
- Levodopa AUCtotal [1, 4]: 9310 (23.6) h · ng/mL
- Levodopa FI (over all intakes) [1, 4]: 175.5 (24.9) %
- Levodopa FI [1, 5]: 172^b %
- Levodopa t1/2 [1, 5]: 1.4^b h
- Levodopa FI [1, 6]: 148^d %
- Levodopa t1/2 [1, 6]: 1.5^e h
- Levodopa FI [1, 7]: 202%
- Levodopa t1/2 [1, 7]: 1.1^a h
- Levodopa FI [1, 8]: 118^d %
- Levodopa t1/2 [1, 8]: 1.2^d h
- Levodopa AUCtotal [1, 9]: 10,391 (23.4) h · ng/mL
- Levodopa FI (over all intakes) [1, 9]: 166.9 (20.7) %
- Levodopa FI [1, 10]: 176^c %
- Levodopa t1/2 [1, 10]: 0.9^c h
- Levodopa FI [1, 11]: 113^f %
- Levodopa t1/2 [1, 11]: 1.3^g h
- Levodopa AUCtotal, geometric mean (90% CI) [1, 12]: 9097 (8111, 10,202) h · ng/mL
- Levodopa FI, geometric mean (90% CI) [1, 12]: 169.6 (145.9, 197.1) %
- Levodopa AUCtotal, geometric mean (90% CI) [1, 13]: 10,126 (8940, 11,469) h · ng/mL
- Levodopa FI, geometric mean (90% CI) [1, 13]: 163.7 (146.9, 182.3) %
- 3-O-methyldopa AUCtotal, Geometric Mean (90% CI) ([2]; 5-intake LD/CD 500/125mg vs 4-intake LD/CD 400/100mg +OPC 50mg): 41051 (34603, 48700) h•ng/mL
- 3-O-methyldopa FI [2, 14]: 12.9^a %
- 3-O-methyldopa t1/2 [2, 14]: 13.5^d h
- 3-O-methyldopa FI ([2]; 5-intake LD/CD 500/125mg vs 4-intake LD/CD 400/100mg plus OPC 50mg, 3rd LD/CD intake, mean): 9.87^b %
- 3-O-methyldopa FI ([2]; 5-intake LD/CD 500/125mg vs 4-intake LD/CD 400/100mg plus OPC 50mg, 4th LD/CD intake, 1 patient): 14.6^c %
- 3-O-methyldopa AUCtotal ([2]; 5-intake LD/CD 500/125mg vs 4-intake LD/CD 400/100mg plus OPC 50mg): 43080 (31.8) h*ng/mL
- 3-O-methyldopa AUCtotal, Geometric Mean (90% CI) ([2]; 5-intake LD/CD 500/125mg vs 5-intake LD/CD 400/100mg +OPC 50mg): 39650 (35181, 44687) h•ng/mL
- 3-O-methyldopa FI [2, 15]: 8.63^g %
- 3-O-methyldopa t1/2 [2, 15]: 15.2^b h
- 3-O-methyldopa t1/2 ([2]; 5-intake LD/CD 500/125mg vs 5-intake LD/CD 400/100mg plus OPC 50mg, 2nd LD/CD intake, 1 patient): 9.43^c h
- 3-O-methyldopa FI ([2]; 5-intake LD/CD 500/125mg vs 5-intake LD/CD 400/100mg plus OPC 50mg, 2nd LD/CD intake, mean): 19.7^d %
- 3-O-methyldopa FI ([2]; 5-intake LD/CD 500/125mg vs 5-intake LD/CD 400/100mg plus OPC 50mg, 3rd LD/CD intake, 1 patient): 10.3^c %
- 3-O-methyldopa AUCtotal ([2]; 5-intake LD/CD 500/125mg vs 5-intake LD/CD 400/100mg plus OPC 50mg): 40656 (24.2) h*ng/mL
